Assays:
[1] = molecular target: human plasma butyrylcholinesterase (HuBChE) (Homo sapiens, UniProt P06276); test: Inhibition kinetics of human plasma BChE in vitro (Ellman); settings: Hu-BuChE; for Ki: 25° C, dissociation constant
M1 muscarinic receptors = M1 muscarinic receptors (Rattus norvegicus, UniProt P08482); test: Displacement of [^3H]pirenzepine from rat brain; settings: L = 1.7 nM, KD = 13.9 nM
[2] = molecular target: recombinant human acetylcholineesterase (rHuAChE) (Homo sapiens, UniProt P22303); test: Inhibition of recombinant human AChE in vitro (Ellman); settings: Hu-AChE; for Ki: 25° C, dissociation constant
mice = test: In vivo toxicity (LD50) and Therapeutic Index in mice; settings: for LD50 (mice i.p.): intraperitoneal, 24 hours
M2 muscarinic receptors = M2 muscarinic receptors (Rattus norvegicus, UniProt P10980); test: Displacement of [^3H]AFDX-346 from rat brain; settings: [^3H]AFDX-346, L = 0.49 nM, KD = 5 nM
[3] = molecular target: fetal bovine serum-AChE (FBS-AChE) (Bos taurus, UniProt P23795); test: Inhibition kinetics of fetal bovine serum AChE in vitro (Ellman); settings: for Ki: 25° C, dissociation constant

SMILES | K′ [1] | ki (bimolecular rate constant) [1] | ks × 10^3 [1] | Ki [1] | IC50 (M1 muscarinic receptors) | Ki (M1 muscarinic receptors) | K′ [2] | ki (bimolecular rate constant) [2] | ks × 10^3 [2] | Ki [2] | Therapeutic Index (TI = LD50/ED50) (mice; ED50 = dose causing 50% ChE inhibition in blood) | IC50 (M2 muscarinic receptors) | Ki (M2 muscarinic receptors) | K′ [3] | ki (bimolecular rate constant) [3] | ks × 10^3 [3] | Ki [3] | LD50 (mice i.p.) (mice)
CC(C)Cc1ccc(C(C)C(=O)OCCCCCCCC[n+]2cccc(OC(=O)N(C)C)c2)cc1 (stereo not drawn) | 1.5 min⁻¹ | 2.0 × 10^5 M^−1m^−1 | 3.6 minutes^−1 | 7500 nM | 570 nM | 510 nM | 2.2 min⁻¹ | 1.3 × 10^6 M^−1m^−1 | 22 minutes^−1 | 1700 nM | 15.3 | 480 nM | 440 nM | 1.1 min⁻¹ | 4.8 × 10^5 M^−1m^−1 | 20 minutes^−1 | 2200 nM | –
CC(C)Cc1ccc([C@H](C)C(=O)OCCCCCCCC[n+]2cccc(OC(=O)N(C)C)c2)cc1 | – | – | – | – | – | – | 0.32 min⁻¹ | 2.7 × 10^5 M^−1m^−1 | 29 minutes^−1 | – | – | – | – | – | – | – | – | –
CC(=O)Oc1ccccc1C(=O)OCCCCCCCC[n+]1cccc(OC(=O)N(C)C)c1 | 0.04 min⁻¹ | 8.0 × 10^4 M^−1m^−1 | 0.7 minutes^−1 | 490 nM | – | – | 0.42 min⁻¹ | 2.2 × 10^6 M^−1m^−1 | 12.6 minutes^−1 | 190 nM | – | – | – | 0.21 min⁻¹ | 1.3 × 10^6 M^−1m^−1 | 21 minutes^−1 | 160 nM | 47.7 mg/kg
COc1ccc2c(c1)c(CC(=O)OCCCCCCCC[n+]1cccc(OC(=O)N(C)C)c1)c(C)n2C(=O)c1ccc(Cl)cc1 | – | – | – | – | – | – | 0.45 min⁻¹ | 2.8 × 10^6 M^−1m^−1 | 45 minutes^−1 | 160 nM | – | – | – | 1.4 min⁻¹ | 8.6 × 10^4 M^−1m^−1 | 5.5 minutes^−1 | 16000 nM | 35 mg/kg
